{"sequences": {"note": "The chains behind the UniProt entries cited, without tags or fusion partners. Residues count along the entry.", "UniProt P02745, 23-245": "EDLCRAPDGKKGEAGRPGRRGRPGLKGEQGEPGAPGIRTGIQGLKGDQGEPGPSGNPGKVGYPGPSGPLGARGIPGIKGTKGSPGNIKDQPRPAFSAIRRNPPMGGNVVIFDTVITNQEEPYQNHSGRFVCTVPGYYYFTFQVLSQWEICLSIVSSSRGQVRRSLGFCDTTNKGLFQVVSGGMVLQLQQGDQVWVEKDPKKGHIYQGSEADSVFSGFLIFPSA", "Complement C1q (subcomponent subunits A, B and C), UniProt P02746, 28-253": "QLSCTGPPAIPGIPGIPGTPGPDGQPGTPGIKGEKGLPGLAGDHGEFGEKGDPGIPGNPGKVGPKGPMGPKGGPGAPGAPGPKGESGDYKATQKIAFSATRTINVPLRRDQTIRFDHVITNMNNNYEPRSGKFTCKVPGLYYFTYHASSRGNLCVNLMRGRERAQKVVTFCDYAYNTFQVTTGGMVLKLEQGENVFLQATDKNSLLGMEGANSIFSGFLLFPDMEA", "Complement C1q (subcomponent subunits A, B and C), UniProt P02747, 29-245": "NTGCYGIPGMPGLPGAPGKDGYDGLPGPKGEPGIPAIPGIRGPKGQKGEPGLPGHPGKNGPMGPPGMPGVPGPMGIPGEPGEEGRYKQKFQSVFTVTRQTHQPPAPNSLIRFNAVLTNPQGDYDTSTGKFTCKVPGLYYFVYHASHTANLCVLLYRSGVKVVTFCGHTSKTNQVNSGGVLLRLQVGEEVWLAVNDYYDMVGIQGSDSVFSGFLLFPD"}, "source": "paper PMC10282828", "target": "empty AAV9 capsid (adeno-associated virus 9) (adeno-associated virus 9) (UniProt Q6JC40)"}
{"substance": "Complement C1q (subcomponent subunits A, B and C) (from UniProt P02745 23-245; P02746 28-253; P02747 29-245) (complex)", "values": [{"measurement": "C3a generation (complement activation, C3a ELISA kit) after incubation of AAV9 capsids with complement activating sera of nine seropositive subjects", "result": 10600, "unit": "ng/mL"}, {"measurement": "C3a generation (complement activation, C3a ELISA kit) after incubation of AAV9 capsids with the same sera depleted of IgG/IgM", "result": 1530, "unit": "ng/mL"}]}
